Reference: PubChem BioAssay AID2718 (Broad Institute, 2010)
Only a part is listed here, and it is no random draw. Calls of active or inactive are those of the source. No stated cut-off is given here; in the data, active means inhibition above about 26% (passing the limit was not always enough); inconclusive means no clear call, values can overlap the other calls.

Sequences of proteins named here, by UniProt entry; tags and fusion partners are left off.
UniProt O15379, whole entry: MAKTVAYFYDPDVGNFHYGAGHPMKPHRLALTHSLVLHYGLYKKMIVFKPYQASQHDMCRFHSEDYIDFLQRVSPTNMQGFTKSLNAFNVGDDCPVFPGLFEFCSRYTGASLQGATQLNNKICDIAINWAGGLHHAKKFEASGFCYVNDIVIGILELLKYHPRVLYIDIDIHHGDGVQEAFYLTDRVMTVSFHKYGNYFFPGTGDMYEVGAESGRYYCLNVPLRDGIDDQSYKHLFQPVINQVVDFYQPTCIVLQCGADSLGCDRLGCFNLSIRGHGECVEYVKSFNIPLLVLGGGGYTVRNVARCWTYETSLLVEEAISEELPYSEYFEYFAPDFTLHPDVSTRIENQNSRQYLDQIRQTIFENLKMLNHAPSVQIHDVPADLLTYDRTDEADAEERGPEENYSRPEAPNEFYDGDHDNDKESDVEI

target: Histone deacetylase 3 (Homo sapiens) (UniProt O15379); test: HDAC3 deacetylase inhibitors, primary screen, biochemical, fluorescence, cell-free homogeneous (AID 2718); conditions: recombinant HDAC3, fluorogenic peptide/trypsin coupled, at 8.3 µM, active compounds read high

Question: With COc1cc(OC)c(C(=O)NCC2(N(C)C)CCCCC2)cc1OC as the compound, how does the inhibition read?
Answer: The inhibition was inactive: 2.87%.

Question: With O=C(NCC1(N2CCOCC2)CCCCC1)c1cc(F)c(F)cc1Cl as the compound, how does the inhibition read?
Answer: The inhibition was inactive: -1.45%.

Question: CC(C)c1ccc(NC2CCN(C(=O)OC(C)(C)C)CC2)cc1 was tested. Which inhibition did it give?
Answer: The inhibition was inactive: 8.34%.

Question: Which inhibition does the source give for COc1ccc(CN(CCCl)CCCl)cc1Cl here?
Answer: The inhibition was inactive: 11.2%.

Question: For CN(C)c1cccc(C(=O)NCC2(N3CCCCC3)CCCCC2)c1, which inhibition is on record?
Answer: The inhibition was inactive: -0.513%.

Question: Which inhibition does the source give for CCCOc1ccc(C(=O)NCC2(N(C)C)CCCCC2)cc1OC here?
Answer: Its inhibition is inactive: -1.62%.

Question: How did the inhibition turn out when CN1CCC(Nc2cccc(F)c2)CC1 was run?
Answer: Its inhibition is inactive: -22.4%.

Question: How did the inhibition turn out when O=C(NCC1(N2CCCCC2)CCCCC1)c1cncc(Br)c1 was run?
Answer: The inhibition was inactive: 3.26%.

Question: How did the inhibition turn out when CCN1CCC(Nc2ccc(Cl)cc2)CC1 was run?
Answer: The inhibition was inactive: -2.7%.

Question: With N#CC1(Nc2ccccc2)CCN(CCc2ccccc2)CC1 as the compound, how does the inhibition read?
Answer: The inhibition was inactive: -2.15%.

Question: Which inhibition does the source give for O=C(NCC1(N2CCCCC2)CCCCC1)c1ccc(OC(F)F)cc1 here?
Answer: The inhibition was inactive: 2.5%.

Question: How did the inhibition turn out when COc1cc(C(=O)NCC2(N3CCCCC3)CCCCC2)ccc1OC(F)F was run?
Answer: Its inhibition is inactive: -0.577%.

Question: Which inhibition does the source give for O=C(NCC1(N2CCOCC2)CCCCC1)c1cc(=O)[nH]c2ccccc12 here?
Answer: Its inhibition is inactive: 4.89%.

Question: How did the inhibition turn out when CN1CCN(CCOC(=O)C(O)(c2ccccc2)c2ccccc2)CC1 was run?
Answer: The inhibition was inactive: 1.81%.

Question: With COc1ccc(NC2CCN(C(=O)OC(C)(C)C)CC2)cc1 as the compound, how does the inhibition read?
Answer: Its inhibition is inactive: 2.21%.

Question: For O=C(NCC1(N2CCCCC2)CCCCC1)c1cccc(C(F)(F)F)c1, which inhibition is on record?
Answer: The inhibition was inactive: 2.92%.

Question: With O=C(NCC1(N2CCCCC2)CCCCC1)c1ccc(F)cc1 as the compound, how does the inhibition read?
Answer: Its inhibition is inactive: 1.15%.

Question: For COc1ccc(NC2CCN(CCc3ccccc3)CC2)c(OC)c1, which inhibition is on record?
Answer: The inhibition was inactive: -4.13%.

Question: CCOC(=O)N1CCC(Nc2ccc(F)cc2)CC1 was tested. Which inhibition did it give?
Answer: The inhibition was inactive: -12.2%.

Question: CCOc1ccc(C)cc1CN(CCCl)CCCl was tested. Which inhibition did it give?
Answer: Its inhibition is inactive: 0.781%.

Question: For CCOC(=O)N1CCC(Nc2cccc(C)c2)CC1, which inhibition is on record?
Answer: The inhibition was inactive: -3.47%.

Question: With COc1cc(C(=O)NCC2(N(C)C)CCCCC2)ccc1OC(F)F as the compound, how does the inhibition read?
Answer: Its inhibition is inactive: -1.31%.

Question: With Cc1ccc(OCC(C)C)c(CN(CCCl)CCCl)c1 as the compound, how does the inhibition read?
Answer: The inhibition was inactive: -1.27%.

Question: With CSc1ccccc1C(=O)NCC1(N2CCCCC2)CCCCC1 as the compound, how does the inhibition read?
Answer: The inhibition was inactive: 6.41%.

Question: COc1ccc(C(=O)NCC2(N3CCCCC3)CCCCC2)cc1 was tested. Which inhibition did it give?
Answer: The inhibition was inactive: -0.418%.

Question: For CC(C)(C)OC(=O)N1CCC(N(C(=O)c2ccccc2)c2ccc(F)cc2)CC1, which inhibition is on record?
Answer: Its inhibition is inactive: -9.08%.

Question: Which inhibition does the source give for COc1ccc(C(=O)NCC2(N3CCCCC3)CCCCC2)c(OC)c1OC here?
Answer: Its inhibition is inactive: 2.07%.

Question: With O=C(NCC1(N2CCCCC2)CCCCC1)c1ccc(=O)[nH]c1 as the compound, how does the inhibition read?
Answer: Its inhibition is inactive: 4.45%.

Question: How did the inhibition turn out when O=C(NCC1(N2CCCCC2)CCCCC1)c1cccs1 was run?
Answer: The inhibition was inactive: 2.04%.

Question: For O=C(NCC1(N2CCCCC2)CCCCC1)c1ccc(Cl)s1, which inhibition is on record?
Answer: The inhibition was inactive: 2.84%.

Question: Which inhibition does the source give for N#CC1(Nc2ccccc2)CCN(Cc2ccccc2)CC1 here?
Answer: The inhibition was inactive: 0.453%.

Question: O=C(OC1CN2CCC1CC2)C1c2ccccc2Oc2ccccc21 (stereo not drawn) was tested. Which inhibition did it give?
Answer: Its inhibition is inactive: 0.367%.

Question: How did the inhibition turn out when COc1ccc(Cl)cc1C(=O)NCC1(N2CCOCC2)CCCCC1 was run?
Answer: The inhibition was inactive: -4.53%.

Question: Which inhibition does the source give for CCOC(=O)N1CCC(Nc2ccc(OC)cc2)CC1 here?
Answer: The inhibition was inactive: 2.59%.

Question: For O=C(NCC1(N2CCCCC2)CCCCC1)c1ccc(Cl)nc1, which inhibition is on record?
Answer: The inhibition was inactive: 1.74%.

Question: Cc1cc(C)cc(N(C(=O)c2ccccc2)C2CCN(C(=O)OC(C)(C)C)CC2)c1 was tested. Which inhibition did it give?
Answer: The inhibition was inactive: 2.5%.

Question: With O=C(NCC1(N2CCOCC2)CCCCC1)c1cc2ccccc2o1 as the compound, how does the inhibition read?
Answer: The inhibition was inactive: -1.51%.

Question: For CC(C)(C)OC(=O)N1CCC(Nc2ccccc2)CC1, which inhibition is on record?
Answer: The inhibition was inactive: 1.35%.

Question: For O=C(O)C1(Nc2ccccc2)CCN(Cc2ccccc2)CC1, which inhibition is on record?
Answer: The inhibition was inactive: -1.69%.

Question: How did the inhibition turn out when CCCOc1ccc(C(=O)NCC2(N(C)C)CCCCC2)cc1 was run?
Answer: The inhibition was inactive: 0.557%.

Question: How did the inhibition turn out when CCOc1ncccc1C(=O)NCC1(N2CCOCC2)CCCCC1 was run?
Answer: The inhibition was inactive: 2.47%.

Question: For CN1CCC(Nc2ccc(F)c(Cl)c2)CC1, which inhibition is on record?
Answer: The inhibition was inactive: -3.25%.

Question: With CN1CCC(Nc2ccc(Cl)cc2)CC1 as the compound, how does the inhibition read?
Answer: The inhibition was inactive: 0.358%.

Question: CCCOc1ccc(C)cc1CN(CCCl)CCCl was tested. Which inhibition did it give?
Answer: Its inhibition is inactive: -6.17%.

Question: COc1cc(OC)cc(C(=O)NCC2(N3CCOCC3)CCCCC2)c1 was tested. Which inhibition did it give?
Answer: Its inhibition is inactive: 1.25%.

Question: With COc1cccc(C(=O)N(c2cc(C)cc(C)c2)C2CCN(C(=O)OC(C)(C)C)CC2)c1 as the compound, how does the inhibition read?
Answer: Its inhibition is inactive: 3.12%.

Question: For CCC(CO)(C(=O)OC1CN2CCC1CC2)c1ccccc1 (stereo not drawn), which inhibition is on record?
Answer: Its inhibition is inactive: 1.23%.

Question: For Cc1ccc(C(=O)NCC2(N3CCCCC3)CCCCC2)o1, which inhibition is on record?
Answer: The inhibition was inactive: 5.4%.

Question: How did the inhibition turn out when Fc1ccccc1NC1CCN(Cc2ccccc2)CC1 was run?
Answer: The inhibition was inactive: -1.7%.

Question: Which inhibition does the source give for COc1cc(OC)cc(C(=O)NCC2(N3CCCCC3)CCCCC2)c1 here?
Answer: The inhibition was inactive: 0.554%.

Question: With O=C(NCC1(N2CCCCC2)CCCCC1)c1ccco1 as the compound, how does the inhibition read?
Answer: The inhibition was inactive: -3.17%.

Question: With CN(C)c1ccc(C(=O)NCC2(N3CCCCC3)CCCCC2)cc1 as the compound, how does the inhibition read?
Answer: Its inhibition is inactive: 4.84%.

Question: How did the inhibition turn out when CCN1CCC(Nc2cccc(F)c2)CC1 was run?
Answer: The inhibition was inactive: -0.51%.

Question: For CC(C)(C)OC(=O)N1CCC(N(C(=O)c2ccccc2)c2ccc(Cl)cc2)CC1, which inhibition is on record?
Answer: Its inhibition is inactive: 9.73%.

Question: Which inhibition does the source give for c1ccc(CN2CCC(Nc3ccccc3)CC2)cc1 here?
Answer: The inhibition was inactive: -1.97%.

Question: With CCCN1CCC(Nc2cc(OC)cc(OC)c2)CC1 as the compound, how does the inhibition read?
Answer: Its inhibition is inactive: -4.17%.

Question: For COc1ccc(C(=O)NCC2(N3CCOCC3)CCCCC2)cc1OC, which inhibition is on record?
Answer: Its inhibition is inactive: -2.5%.

Question: Which inhibition does the source give for COc1cc(C(=O)NCC2(N3CCOCC3)CCCCC2)cc(OC)c1C here?
Answer: The inhibition was inactive: -1.52%.

Question: For O=C(NCC1(N2CCOCC2)CCCCC1)c1cc(Br)ccc1Cl, which inhibition is on record?
Answer: Its inhibition is inactive: -0.758%.

Question: With CCc1cc(C(=O)NCC2(N3CCCCC3)CCCCC2)sc1C as the compound, how does the inhibition read?
Answer: The inhibition was inactive: -0.856%.

Question: With O=C(OC1CN2CCC1CC2)C1c2ccccc2C=Cc2ccccc21 (stereo not drawn) as the compound, how does the inhibition read?
Answer: Its inhibition is inactive: -15.7%.

Question: How did the inhibition turn out when CCOC(=O)N1CCC(Nc2ccc(C)cc2)CC1 was run?
Answer: The inhibition was inactive: -6.41%.

Question: Which inhibition does the source give for N/C(=N\O)c1c(N)no[n+]1[O-] here?
Answer: The inhibition was inactive: 0.00308%.
